{"source": "paper PMC10603954", "about": "“Bacterial Tyrosinase Inhibition, Hemolytic and Thrombolytic Screening, and In Silico Modeling of Rationally Designed Tosyl Piperazine-Engrafted Dithiocarbamate Derivatives” (Biomedicines, 2023)", "experiment": "Hemolytic activity", "details": "albino, mouse, pH 7.4"}
{"molecule": "CCn1c(=NN=c2sc3cc(S(=O)(=O)O)ccc3n2CC)sc2cc(S(=O)(=O)O)ccc21", "note": "[ABTS, 2,2′-azino-bis(3-ethylbenzothiazoline-6-sulfonic acid), reference compound]", "values": [{"measurement": "hemolysis at 0.5 h, 1 mg/mL", "result": 95.9, "unit": "%"}]}
